Measured values from paper PMC11579512, “Deoxybouvardin-glucoside induces apoptosis in non-small cell lung cancer cells by targeting EGFR/MET and AKT signaling pathway” (EXCLI Journal, 2024).

Tested on: HCC827 cells
Assay: Soft agar anchorage-independent growth, HCC827
Assay type: cell-based, human
Conditions: 2 weeks; GEF 1 μM, SAV 2 nM or both
Protocol: The anchorage-independent cell growth assay was performed in 6-well plates with dual agar layers containing 0.6 % agar (lower layer) and 0.3 % agar (upper layer) supplemented with BME, 2 mM L-glutamine, 5 μg/ml gentamicin, and 10 % FBS. After 2 weeks of incubation, the number of colonies was assessed using a microscope (Leica, Wetzlar, Germany), and the mean colony area was analyzed using i-Solution ^TM software (Vancouver, BC, Canada).

C[C@@H](c1ccc2nccn2c1)n1nnc2ncc(-c3cnn(C)c3)nc21 [SAV, savolitinib, reference compound]
colony number, Control %: 110.58%
